Data: PubChem BioAssay AID602252 (Broad Institute, 2012)
The entries are a selection whose mix differs from that of the whole data set. Activity calls are given as the source filed them.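 Rule for the calls: active = mean inhibition of at least 30% with at least half of replicates also reaching 30%; inconclusive = no clear call, values can overlap the other calls; inactive = the rest.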

target: Golgi-associated PDZ and coiled-coil motif-containing protein (Homo sapiens) (UniProt Q9HD26); experiment: blockade of CAL PDZ-reporter peptide interaction – biochemical, fluorescence polarization, untagged CAL PDZ, HTS, primary screen (AID 602252); conditions: purified CAL PDZ, TMR-peptide fluorescence polarization, 1 h; at 24.9 µM; stronger effect = higher value;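 note: 0% = DMSO neutral control and 100% = excess unlabeled competitor peptide PRC23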

Row | Structure (SMILES) | inhibition
1 | O=C(NCC1(N2CCCCC2)CCCCC1)c1cccc(C(F)(F)F)c1 | inactive: -0.286%
2 | CC(C)c1ccc(C(=O)NCC2(N3CCOCC3)CCCCC2)cc1 | inactive: -3.53%
3 | CN1CCN(CCOC(=O)C(O)(c2ccccc2)c2ccccc2)CC1 | inactive: 0.759%
4 | O=C(NCC1(N2CCOCC2)CCCCC1)c1cc(=O)[nH]c2ccccc12 | inactive: -1.39%
5 | O=C(NCC1(N2CCCCC2)CCCCC1)c1ccc(OC(F)F)cc1 | inactive: -1.8%
6 | CSc1ccc(C(=O)NCC2(N3CCOCC3)CCCCC2)cc1 | inactive: -2.56%
7 | O=C(NCC1(N2CCCCC2)CCCCC1)c1cccc([N+](=O)[O-])c1 | inactive: -2.75%
8 | CCN1CCC(Nc2ccc(Cl)cc2)CC1 | inactive: -3.4%
9 | N#CC1(Nc2ccccc2)CCN(CCc2ccccc2)CC1 | inactive: 0.487%
10 | CCCOc1ccc(C(=O)NCC2(N(C)C)CCCCC2)cc1OC | inactive: 0.818%
11 | COc1ccc(CN(CCCl)CCCl)cc1Cl | inactive: -4.98%
12 | CN(C)c1cccc(C(=O)NCC2(N3CCCCC3)CCCCC2)c1 | inactive: -0.899%
13 | CC(C)c1ccc(NC2CCN(C(=O)OC(C)(C)C)CC2)cc1 | inactive: -2.42%
14 | COc1cc(OC)c(C(=O)NCC2(N(C)C)CCCCC2)cc1OC | inactive: -2.5%
15 | O=C(NCC1(N2CCOCC2)CCCCC1)c1cc(F)c(F)cc1Cl | inactive: 2.02%
16 | O=C(NCC1(N2CCOCC2)CCCCC1)c1cc2ccccc2o1 | inactive: -4%
17 | O=C(NCC1(N2CCCCC2)CCCCC1)c1ccc(Cl)nc1 | inactive: -2.72%
18 | Cc1cc(C)cc(N(C(=O)c2ccccc2)C2CCN(C(=O)OC(C)(C)C)CC2)c1 | inactive: -8.4%
19 | CCOC(=O)N1CCC(Nc2ccc(OC)cc2)CC1 | inactive: -1.18%
20 | N#CC1(Nc2ccccc2)CCN(Cc2ccccc2)CC1 | inactive: -0.338%
21 | O=C(NCC1(N2CCCCC2)CCCCC1)c1ccc(Cl)s1 | inactive: 0.634%
22 | O=C(OC1CN2CCC1CC2)C1c2ccccc2Oc2ccccc21 (stereo not drawn) | inactive: -2.67%
23 | COc1ccc(Cl)cc1C(=O)NCC1(N2CCOCC2)CCCCC1 | inactive: -6.82%

Row | Structure (SMILES) | inhibition
24 | O=C(NCC1(N2CCCCC2)CCCCC1)c1ccc(=O)[nH]c1 | inactive: -1.57%
25 | O=C(NCC1(N2CCCCC2)CCCCC1)c1cccs1 | inactive: -6.38%
26 | COc1ccc(C(=O)NCC2(N3CCCCC3)CCCCC2)cc1 | inactive: -2.1%
27 | CC(C)(C)OC(=O)N1CCC(N(C(=O)c2ccccc2)c2ccc(F)cc2)CC1 | inactive: -5.49%
28 | CSc1ccccc1C(=O)NCC1(N2CCCCC2)CCCCC1 | inactive: -4.47%
29 | Cc1cccc(NC2(C#N)CCN(Cc3ccccc3)CC2)c1 | inactive: 0.261%
30 | CCOC(=O)N1CCC(Nc2cccc(C)c2)CC1 | inactive: -1.12%
31 | COc1cc(C(=O)NCC2(N(C)C)CCCCC2)ccc1OC(F)F | inactive: -3.94%
32 | CCOc1ccc(C)cc1CN(CCCl)CCCl | inactive: -2.4%
33 | O=C1CCN(Cc2ccccc2)CC1 | inactive: -1.58%
34 | CCCCOc1ccc(C(=O)NCC2(N3CCOCC3)CCCCC2)cc1 | inactive: -1.69%
35 | O=P1(N(CCCl)CCCl)SCCCS1 | inactive: -8.34%
36 | O=C(NCC1(N2CCCCC2)CCCCC1)c1ccc(F)cc1 | inactive: -2.6%
37 | CCOC(=O)N1CCC(Nc2ccc(F)cc2)CC1 | inactive: -4.49%
38 | COc1ccc(NC2CCN(CCc3ccccc3)CC2)c(OC)c1 | inactive: 0.846%
39 | Cc1ccccc1NC1(C#N)CCN(Cc2ccccc2)CC1 | inactive: -4.16%
40 | CCN1CCC(Nc2cccc(F)c2)CC1 | inactive: -3.1%
41 | O=C(NCC1(N2CCCCC2)CCCCC1)c1ccco1 | inactive: -3.63%
42 | CN(C)c1ccc(C(=O)NCC2(N3CCCCC3)CCCCC2)cc1 | inactive: -4.09%
43 | Cn1c(=O)[nH]cc(N(CCCl)CCCl)c1=O | inactive: -0.332%
44 | COc1cc(OC)cc(C(=O)NCC2(N3CCCCC3)CCCCC2)c1 | inactive: -0.907%
45 | CC(=O)N(c1ccccc1)C1CCNCC1 | inactive: -6.08%
46 | Cc1ccc(NC2(C#N)CCN(Cc3ccccc3)CC2)cc1 | inactive: -0.863%

Row | Structure (SMILES) | inhibition
47 | Cc1ccc(C(=O)NCC2(N3CCCCC3)CCCCC2)o1 | inactive: 1.64%
48 | Fc1ccccc1NC1CCN(Cc2ccccc2)CC1 | inactive: 1.45%
49 | CCC(CO)(C(=O)OC1CN2CCC1CC2)c1ccccc1 (stereo not drawn) | inactive: 1.65%
50 | COc1cccc(C(=O)N(c2cc(C)cc(C)c2)C2CCN(C(=O)OC(C)(C)C)CC2)c1 | inactive: -2.21%
51 | CN1CCC(Nc2ccc(Cl)cc2)CC1 | inactive: 0.235%
52 | CCOc1ncccc1C(=O)NCC1(N2CCOCC2)CCCCC1 | inactive: -8.58%
53 | CN1CCC(Nc2ccc(F)c(Cl)c2)CC1 | inactive: -1.31%
54 | CCCOc1ccc(C(=O)NCC2(N(C)C)CCCCC2)cc1 | inactive: -10.5%
55 | CC(C)(C)OC(=O)N1CCC(Nc2ccccc2)CC1 | inactive: -3.35%
56 | O=C(O)C1(Nc2ccccc2)CCN(Cc2ccccc2)CC1 | inactive: -0.153%
57 | N/C(=N\O)c1c(N)no[n+]1[O-] | inactive: 1.28%
58 | CCOC(=O)N1CCC(Nc2ccc(C)cc2)CC1 | inactive: -0.338%
59 | O=C(OC1CN2CCC1CC2)C1c2ccccc2C=Cc2ccccc21 (stereo not drawn) | inactive: -3.92%
60 | O=C(NCC1(N2CCOCC2)CCCCC1)c1cc(Br)ccc1Cl | inactive: -5.53%
61 | COc1cc(C(=O)NCC2(N3CCOCC3)CCCCC2)cc(OC)c1C | inactive: -2.26%
62 | COc1ccc(C(=O)NCC2(N3CCOCC3)CCCCC2)cc1OC | inactive: 2.13%
63 | c1ccc(CN2CCC(Nc3ccccc3)CC2)cc1 | inactive: -4.81%
64 | Cc1cc(N(CCCl)CCCl)ccc1C=O | inactive: -0.628%
65 | CCCN1CCC(Nc2cc(OC)cc(OC)c2)CC1 | inactive: -1.84%
66 | CN(C)C1(CNC(=O)c2cccc(C#N)c2)CCCCC1 | inactive: 2.76%
67 | CC(C)(C)OC(=O)N1CCC(N(C(=O)c2ccccc2)c2ccc(Cl)cc2)CC1 | inactive: -1.54%
68 | N#Cc1ccc(C(=O)NCC2(N3CCCCC3)CCCCC2)cc1 | inactive: -3.76%
